Data: article PMC3176258, “A genomic biomarker signature can predict skin sensitizers using a cell-based in vitro alternative to animal tests” (BMC Genomics, 2011)

Columns and labels:
mice = conditions: sensitizing potency category according to LLNA; ref (14, 15, 45-48); cited from earlier work
MUTZ-3 cells = assay: Cytotoxicity by propidium iodide, relative viability; conditions: concentration yielding 90% relative viability

Isoeugenol
Potency (mice): Moderate [47] | Rv90 (MUTZ-3 cells): 300 µM
